This is a selection; strong and weak results do not stand in their true shares. Some salts or complexes appear as unconnected parts, following the source record. Calls of active or inactive are those of the source.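 The calls were made as follows: active = mean replicate inhibition of at least 70% and a set share of replicates each scoring 70 or more; inconclusive = meets just one of the two criteria; inactive = fails both criteria.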
biological target: Scavenger receptor class B member 1 (Mus musculus) (UniProt Q61009); test: mouse SR-BI DiI-HDL uptake blockers – ldlA[mSR-BI] cells, fluorescence, single point, primary screen (AID 488896); conditions: ldlA[mSR-BI] CHO cells, 3 h, at 12.5 µM, active compounds read high;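 also: 0% = median of neutral control wells and 100% = median of positive control wells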

Sequences of proteins named here, by UniProt entry; tags and fusion partners are left off.
UniProt Q61009, whole entry: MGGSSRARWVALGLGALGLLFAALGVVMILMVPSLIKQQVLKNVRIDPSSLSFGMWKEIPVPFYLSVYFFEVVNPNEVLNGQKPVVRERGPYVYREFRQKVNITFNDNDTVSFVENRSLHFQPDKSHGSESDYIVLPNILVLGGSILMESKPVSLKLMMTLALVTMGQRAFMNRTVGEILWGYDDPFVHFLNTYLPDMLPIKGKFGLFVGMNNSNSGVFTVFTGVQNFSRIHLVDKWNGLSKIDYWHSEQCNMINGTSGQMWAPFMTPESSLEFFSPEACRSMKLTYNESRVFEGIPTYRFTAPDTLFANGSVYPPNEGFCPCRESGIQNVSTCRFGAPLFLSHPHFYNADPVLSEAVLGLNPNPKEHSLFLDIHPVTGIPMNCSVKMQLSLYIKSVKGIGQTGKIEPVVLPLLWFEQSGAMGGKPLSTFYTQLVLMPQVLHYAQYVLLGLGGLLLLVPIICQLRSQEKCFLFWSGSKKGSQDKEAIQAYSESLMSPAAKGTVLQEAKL

SMILES | inhibition
CCN(CC)CCCOC(=O)C(O)(c1ccccc1)c1ccccc1 | inactive: 1.84%
O=[N+]([O-])c1cc([N+](=O)[O-])c(Nc2cccnc2)c([N+](=O)[O-])c1 | inactive: -23.5%
Cc1cccc(C)c1OP(C)(N)=O (stereo unspecified) | inactive: -19.3%
CC(C)(C)c1ccc(OP(C)(=O)Nc2ccc(SC(F)(F)F)cc2)cc1 (stereo unspecified) | inactive: 14.6%
O=[N+]([O-])c1ccc2c(c1)C=Nc1ccccc1O2 | inactive: 3.46%
CCOC(=O)c1ccc(NP(C)(=O)Oc2ccccc2)cc1 (stereo unspecified) | inactive: -16.8%
Cc1ccc(NP(C)(=O)Oc2ccccc2)c(C)c1 (stereo unspecified) | inactive: 4.88%
COc1ccccc1OP(C)(=O)Nc1ccc(C)cc1 (stereo unspecified) | inactive: -22.8%
COc1ccc(OP(C)(=O)Nc2cccc(F)c2)cc1 (stereo unspecified) | inactive: 2.58%
COc1ccccc1OP(C)(=O)Nc1cc(Cl)ccc1C (stereo unspecified) | inactive: 28.8%
Cc1cc(C)cc(OP(C)(N)=O)c1 (stereo unspecified) | inactive: -31.1%
CP(=S)(Nn1cnnc1)Oc1ccccc1 (stereo unspecified) | inactive: -11.6%
COc1ccccc1OP(C)(=O)Nc1ccccc1 (stereo unspecified) | inactive: -3.69%
CP(=O)(Nc1ccccc1Br)Oc1ccccc1 (stereo unspecified) | inactive: -63.6%
CP(=O)(Oc1ccccc1)OC(c1ccccc1)C(F)(F)F (stereo unspecified) | inactive: -23.4%
Cc1cccc(C)c1OP(C)(=O)Nc1ccc(SC(F)(F)F)cc1 (stereo unspecified) | inactive: 15.2%
Cc1cc(C)cc(OP(C)(=O)Nc2ccc(SC(F)(F)F)cc2)c1 (stereo unspecified) | inactive: -15.3%
CP(=O)(NC(=O)Nc1ccccc1)Oc1ccccc1 (stereo unspecified) | inactive: -31%
CCOP(C)(=S)SCC(=O)NC(C)C(=O)O (stereo unspecified) | inactive: -11.2%
CCOC(=O)c1ccc(NP(C)(=O)Oc2ccc(OC)cc2)cc1 (stereo unspecified) | inactive: 15.4%
CP(=O)(Nc1ccccn1)Oc1ccc(Cl)cc1 (stereo unspecified) | inactive: -15.7%
O=[N+]([O-])c1cc([N+](=O)[O-])c(-n2nnc3ccccc32)c([N+](=O)[O-])c1 | inactive: -12.8%

SMILES | inhibition
O=[N+]([O-])c1cc([N+](=O)[O-])c(-c2cnn(-c3ccccc3)c2)c([N+](=O)[O-])c1 | inactive: 31.8%
Cc1nc2ccc3ccccc3c2s1.O=[N+]([O-])c1cc([N+](=O)[O-])c(O)c([N+](=O)[O-])c1 | inactive: 10.9%
CCOC(=O)C(CC)C1=NC(C)(C)Cc2ccccc21.O=[N+]([O-])c1cc([N+](=O)[O-])c(O)c([N+](=O)[O-])c1 (stereo unspecified) | inactive: 1.44%
CC1=C2N=C(C=C3N=C(C(C)=C4[N-][C@@](C)([C@@H]5N=C1[C@](C)(CCC(=O)NC[C@@H](C)OP(=O)([O-])O[C@H]1[C@@H](O)[C@@H](n6cnc7cc(C)c(C)cc76)O[C@@H]1CO)[C@H]5CC(N)=O)[C@@](C)(CC(N)=O)[C@@H]4CCC(N)=O)[C@@](C)(CC(N)=O)[C@@H]3CCC(N)=O)C(C)(C)[C@@H]2CCC(N)=O.[C-]#N.[Co+3] | inactive: -3.45%
O=[N+]([O-])c1cc([N+](=O)[O-])c(Nc2nnnn2CCO)c([N+](=O)[O-])c1 | inactive: -7.74%
COc1ccccc1OP(C)(=O)Nc1c(C)cccc1C (stereo unspecified) | inactive: -12.9%
CN1CCCCC1COC(=O)C1(O)c2ccccc2CCc2ccccc21 (stereo unspecified) | inactive: 3.92%
CCCOc1ccc(NP(C)(=O)Oc2ccc(Cl)cc2)cc1 (stereo unspecified) | inactive: 6.06%
CP(=O)(Nc1ccc(SC(F)(F)F)cc1)Oc1ccccc1 (stereo unspecified) | inactive: -4.62%
COc1ccccc1OP(C)(=O)Nc1cccc(Br)c1 (stereo unspecified) | inactive: -8.69%
Cc1cc(C)cc(OP(C)(=O)Nc2ccc(C)cc2C)c1 (stereo unspecified) | inactive: 27.2%
CCOC(=O)c1ccc(NP(C)(=O)Oc2cc(C)cc(C)c2)cc1 (stereo unspecified) | inactive: 6.86%
Cc1cc(C)cc(OP(C)(=O)Nc2ccccn2)c1 (stereo unspecified) | inactive: -8.53%
CP(=O)(Nc1cccc(Br)c1)Oc1ccccc1 (stereo unspecified) | inactive: 1.13%
Cc1ccc(C)c(NP(C)(=O)Oc2ccccc2)c1 (stereo unspecified) | inactive: -9.76%
CC(C)c1ccc(OP(C)(=O)Nc2ccc(SC(F)(F)F)cc2)cc1 (stereo unspecified) | inactive: -2.21%
CP(=O)(Nc1ccccc1F)Oc1ccccc1 (stereo unspecified) | inactive: -9.12%
O=C(OCCN1CCN(CCOCc2ccccc2)CC1)C(O)(c1ccccc1)c1ccccc1 | inactive: -0.742%
O=C(OC1CN2CCC1CC2)c1ccc([N+](=O)[O-])cc1 (stereo unspecified) | inactive: -6.48%
COc1ccc2c(c1O)-c1c(O)c(OC)cc3c1[C@H](C2)[N+](C)(C)CC3.O=[N+]([O-])c1cc([N+](=O)[O-])c([O-])c([N+](=O)[O-])c1[O-] | inactive: -13.3%
COc1ccc(OP(C)(=O)Nc2ccc(SC(F)(F)F)cc2)cc1 (stereo unspecified) | inactive: -43.5%
CCOC(=O)c1ccc(NP(C)(=O)Oc2ccc(F)cc2)cc1 (stereo unspecified) | inactive: 2.22%

SMILES | inhibition
CCN(CC)CCCOC(=O)C(O)(c1ccccc1)C1CCCCC1 (stereo unspecified) | inactive: -23.1%
Cc1c([N+](=O)[O-])cc([N+](=O)[O-])c(Br)c1[N+](=O)[O-] | inactive: 12.9%
CCCCCOc1ccc(NP(C)(=O)Oc2ccc(Cl)cc2Cl)cc1 (stereo unspecified) | inactive: -21.1%
O=[N+]([O-])c1cc([N+](=O)[O-])c(OC2CCCCC2O)c([N+](=O)[O-])c1 (stereo unspecified) | inactive: 1.94%
CP(=O)(Nc1ccccc1)Oc1ccc(F)cc1 (stereo unspecified) | inactive: -17%
COc1ccc(OP(C)(=O)Nc2cccc(Br)c2)cc1 (stereo unspecified) | inactive: -2.34%
COc1ccc(NP(C)(=O)Oc2ccccc2OC)cc1 (stereo unspecified) | inactive: 15%
CN(C)CCOC(=O)C(O)(c1ccccc1)C1CCCCC1 (stereo unspecified) | inactive: 9.97%
Cc1cc(-c2cccc3ccccc23)c(C)cn1.O=[N+]([O-])c1cc([N+](=O)[O-])c(O)c([N+](=O)[O-])c1 | inactive: 13.1%
O=[N+]([O-])c1cc([N+](=O)[O-])c(NCC2CCS(=O)(=O)C2)c([N+](=O)[O-])c1 (stereo unspecified) | inactive: -31.9%
O=[N+]([O-])c1ccc(OP2(=O)COCCO2)cc1 (stereo unspecified) | inactive: -0.356%
CP(=O)(Nc1ccc(SC(F)(F)F)cc1)Oc1ccc(F)cc1 (stereo unspecified) | inactive: -2.3%
CCOP(C)(=S)SCC(=O)NC(C)(CC)C(=O)O (stereo unspecified) | inactive: -0.118%
CP(=O)(Nc1ccc2c(c1)OCCO2)Oc1ccccc1 (stereo unspecified) | inactive: -23.5%
Cc1ccccc1NP(C)(=O)Nc1ccccc1C | inactive: -17.7%
COc1ccc(OP(C)(=O)Nc2ccc(Br)cc2)cc1 (stereo unspecified) | inactive: -137%
CCN(CC)CC(O)COC(=O)C(O)(c1ccccc1)C1CCCCC1 (stereo unspecified) | inactive: 0.453%
CCc1ccc(OP(C)(=O)Nc2cccnc2)cc1 (stereo unspecified) | inactive: -12%
CP(=O)(Oc1ccccc1)N1CCOC1=O (stereo unspecified) | inactive: -47.3%
O=C(OCCCN1CCCC1)C(O)(c1ccccc1)C1CCCCC1 (stereo unspecified) | inactive: -18%
COc1ccccc1OP(C)(=O)Nc1c(C)n(C)n(-c2ccccc2)c1=O (stereo unspecified) | inactive: -18.3%
CP(=O)(Nc1ccc(Cl)cc1)Oc1ccc(F)cc1 (stereo unspecified) | inactive: -2.18%

SMILES | inhibition
COc1ccccc1OP(C)(=O)Nc1ccccc1Br (stereo unspecified) | inactive: 21.9%
CC(C)(C)c1ccc(OP(C)(=O)O)cc1 | inactive: -23.2%
CN(C)C(=O)c1c([N+](=O)[O-])cc([N+](=O)[O-])cc1[N+](=O)[O-] | inactive: -2.13%
CP(=O)(OC12CC3CC(CC(C3)C1)C2)OC12CC3CC(CC(C3)C1)C2 | inactive: -11.4%
CCOC(=O)c1ccc(NP(C)(=O)Oc2ccc(Cl)cc2)cc1 (stereo unspecified) | inactive: -12.8%
Cc1cc(C)cc(OP(C)(=O)Nc2cccc(C(F)(F)F)c2)c1 (stereo unspecified) | inactive: 1.76%
O=C1C(O)=C([N+](=O)[O-])C(=O)C(O)=C1[N+](=O)[O-] | inactive: -4.37%
COc1ccc(OP(C)(=O)Nc2ccccc2Br)cc1 (stereo unspecified) | inactive: 16.4%
COc1ccccc1OP(C)(=O)Nc1ccc(C)c(C)c1 (stereo unspecified) | inactive: 28.4%
CCCCCCCCCCCCCCCC1C[N+](C)(C)CCOP(C)(=O)O1 (stereo unspecified) | inactive: 15.4%
CP(=O)(Nc1ccc(Cl)cc1Cl)Oc1ccccc1 (stereo unspecified) | inactive: 13%
CP(=O)(OCCOc1ccccc1)OCCOc1ccccc1 | inactive: 17.3%
COc1ccccc1OP(C)(=O)Nc1ccc(Br)cc1 (stereo unspecified) | inactive: 3.82%
CN(C)CCOC(=O)C(O)(c1ccccc1)C1CCCC1 (stereo unspecified) | inactive: -30.6%
COc1ccc(OP(C)(=O)Nc2ccccn2)cc1 (stereo unspecified) | inactive: -20%
Cc1c(NP(C)(=O)Oc2ccc(C(C)C)cc2)c(=O)n(-c2ccccc2)n1C (stereo unspecified) | inactive: 6.12%
O=[N+]([O-])c1cc([N+](=O)[O-])c(Nc2ccccn2)c([N+](=O)[O-])c1 | inactive: 1.34%
CCc1ccc(OP(C)(=O)O)cc1 | inactive: -28.6%
COc1ccccc1OP(C)(=O)Nc1ccc(C)cc1C (stereo unspecified) | inactive: 16.1%
CP(=O)(Nc1ccccn1)Oc1ccccc1 (stereo unspecified) | inactive: -8.89%

Source: PubChem BioAssay AID488896 (Broad Institute, 2010)
